Test results reported in patent US20180312557A1, “Leg1 Protein, Leg1 Gene, and Uses and Drugs thereof” (ZHEJIANG UNIVERSITY, priority 2016, published 2018).

Target: T1, EGFR (Homo sapiens, UniProt P00533)
T1 construct: endogenous in cells; host or cells: HepG2
Experiment: Effect of EGFR inhibitor on mLeg1-induced Akt and EGFR phosphorylation in HepG2 cells
Assay type: cell-based
Conditions: HepG2, 1 μM inhibitor
Protocol: 20.1 Culture of the HepG2 cell: reference may be made to step 18.1 for details.
20.2 Additives (BSA, mLeg1, AG1478) were added to the cell culture solution separately, after culture for 15 minutes, the total protein was extracted (referring to step 13.2), and the level of the proteins (p-Akt, Akt, P-EGFR) in each treatment group was detected by Western blot (referring to step 2.2).

## COc1cc2ncnc(Nc3cccc(Cl)c3)c2cc1OC [AG1478, reference compound]
  mLeg1-induced Akt phosphorylation: blocked
  mLeg1-induced activation of EGFR (EGFR phosphorylation level): inhibited
